Measurements reported in US9127027B2, “Epoxyeicosatrienoic acid analogs and methods of making and using the same” (The Medical College of Wisconsin, Inc., priority 2011, dated 2015).
Where two headings read alike, the source gives them in different places.

The chains behind the UniProt entries cited, without tags or fusion partners.
UniProt P34913, whole entry: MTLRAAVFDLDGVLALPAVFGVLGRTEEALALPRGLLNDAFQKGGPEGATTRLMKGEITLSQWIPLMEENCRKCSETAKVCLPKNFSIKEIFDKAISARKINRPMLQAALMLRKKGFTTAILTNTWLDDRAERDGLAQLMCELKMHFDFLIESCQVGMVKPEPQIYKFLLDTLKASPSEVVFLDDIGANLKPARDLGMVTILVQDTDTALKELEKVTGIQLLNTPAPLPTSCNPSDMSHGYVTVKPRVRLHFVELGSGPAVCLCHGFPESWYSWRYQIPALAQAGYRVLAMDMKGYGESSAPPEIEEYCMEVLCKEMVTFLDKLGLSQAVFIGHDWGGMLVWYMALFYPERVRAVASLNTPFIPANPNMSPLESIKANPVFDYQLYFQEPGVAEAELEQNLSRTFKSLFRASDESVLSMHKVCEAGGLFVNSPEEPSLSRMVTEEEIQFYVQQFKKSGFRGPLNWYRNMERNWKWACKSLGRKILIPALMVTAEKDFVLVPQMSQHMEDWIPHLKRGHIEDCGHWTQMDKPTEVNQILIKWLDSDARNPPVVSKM

Biological target: Human recombinant sEH (Homo sapiens (Human), UniProt P34913)
Experiment: Soluble epoxide hydrolase inhibition (PHOME fluorescent substrate)
Assay type: biochemical
Protocol: Compounds were tested for their ability to inhibit recombinant soluble epoxide hydrolase (sEH) protein. The assay utilizes (3-Phhenyl-oxiranyl)-acetic acid cyano-(6-methoxy-naphthalen-2-yl)-methyl ester (PHOME), a sensitive substrate for sEH that can be used to monitor the activity of both human and murine enzymes. Hydrolysis of the substrate epoxide yields a highly fluorescent product, 6-methoxy-2-Naphthaldehyde, which can be monitored at excitation and emission wavelengths of 330 and 465 nm, respectively. See Wolf et al., Anal Biochem 355:71-80, 2006 PMID: 16729954. Human recombinant sEH was incubated with substrate and compounds ranging in concentration from 0.1 to 1000 nM.

- IC50 (Table 1 head prints μM (Table 2 prints nM for same numbers), read-out: sEHi IC50): 0.392 µM
- IC50 (Table 2, read-out: SEHi activity IC50): 0.392 µM
SMILES: CCCCCNC(=O)NCCCC/C=C\CCCCCCC(=O)N[C@@H](CC(=O)O)C(=O)O (stereo in doubt) [Compound 7, (S)-2-(13-(3-n-Pentylureido)tridec-8(Z)-enamido)succinic acid]
